According to patent US5612056A, “Transdermal formulations” (priority 1991, dated 1997):

System: guinea pig
Settings: in vivo

Substance: Propionic Acid
- deaths: One animal in this group died within 24 hrs of treatment
- signs of cholinesterase poisoning in remaining animals: all other animals showed no signs of cholinesterase poisoning
